{"source": "paper PMC6412969", "origin": "cited, not measured here", "system": "μOR", "details": "other results from our laboratory", "data": [{"substance": "biphalin", "values": [{"measurement": "IC50", "value": 1.4, "unit": "nM"}]}]}
